Experimental data: patent US20200123190A1

Amino acid sequences for entries named in this document (tags omitted). A change or cut given only in a name is not applied to a line headed by its entry.
UniProt P51178: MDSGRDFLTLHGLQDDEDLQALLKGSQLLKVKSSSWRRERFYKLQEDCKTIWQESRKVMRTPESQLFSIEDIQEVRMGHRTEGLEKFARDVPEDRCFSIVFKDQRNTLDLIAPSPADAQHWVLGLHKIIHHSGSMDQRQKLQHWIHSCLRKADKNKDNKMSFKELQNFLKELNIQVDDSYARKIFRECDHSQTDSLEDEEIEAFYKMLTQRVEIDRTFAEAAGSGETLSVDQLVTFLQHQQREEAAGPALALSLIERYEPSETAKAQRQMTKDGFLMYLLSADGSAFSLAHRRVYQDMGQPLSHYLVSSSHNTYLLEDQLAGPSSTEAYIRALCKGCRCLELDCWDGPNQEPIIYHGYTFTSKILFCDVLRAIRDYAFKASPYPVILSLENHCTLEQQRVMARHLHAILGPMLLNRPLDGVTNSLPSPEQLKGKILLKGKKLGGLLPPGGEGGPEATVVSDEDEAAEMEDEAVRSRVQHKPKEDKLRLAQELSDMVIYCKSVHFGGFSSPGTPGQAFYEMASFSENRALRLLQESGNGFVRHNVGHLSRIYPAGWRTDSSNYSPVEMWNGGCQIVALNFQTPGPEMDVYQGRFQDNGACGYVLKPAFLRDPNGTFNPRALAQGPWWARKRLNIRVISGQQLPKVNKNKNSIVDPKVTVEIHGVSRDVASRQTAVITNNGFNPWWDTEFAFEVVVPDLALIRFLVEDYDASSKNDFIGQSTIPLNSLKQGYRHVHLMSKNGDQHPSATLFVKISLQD

Tests used:
Phospholipase CD1 = Phospholipase CD1 (Homo sapiens, UniProt P51178); details: Phospholipase CD1, PBS, 37° C., about 1 hour

Substance	Distribution coefficient: log P(n-octanol/PBS)	Change in HPLC pattern (Phospholipase CD1)
O,O′— Di(4-fluoro)benzyl 5-fluoro-2′-deoxy-5′-cytidylate [Compound (4)]	2.196	–
O,′-Di (4-fluoro)benzyl 2′-deoxy-2′,2′-difluoro-5′-cytidylate [Compound (1)]	–	Almost no change in the peak of the starting
